Key:
[1] = target: T1, hCB1R (Homo sapiens, UniProt P21554)
[2] = target: T1, hCB1R; remark: listed apart in the source
[3] = target: T1, hCB1R; remark: listed apart in the source
[4] = target: T1, hCB1R; remark: listed apart in the source
[5] = target: Rat recombinant TRPA1 (Rattus norvegicus, UniProt Q6RI86); experiment: cell-based
[6] = target: mCB2R (Mus musculus, UniProt P47936); assay type: binding; conditions: mouse spleen membranes

Sequences of proteins named here, by UniProt entry; tags and fusion partners are left off. A change or cut given only in a name is not applied to a line headed by its entry.
UniProt P21554, whole entry: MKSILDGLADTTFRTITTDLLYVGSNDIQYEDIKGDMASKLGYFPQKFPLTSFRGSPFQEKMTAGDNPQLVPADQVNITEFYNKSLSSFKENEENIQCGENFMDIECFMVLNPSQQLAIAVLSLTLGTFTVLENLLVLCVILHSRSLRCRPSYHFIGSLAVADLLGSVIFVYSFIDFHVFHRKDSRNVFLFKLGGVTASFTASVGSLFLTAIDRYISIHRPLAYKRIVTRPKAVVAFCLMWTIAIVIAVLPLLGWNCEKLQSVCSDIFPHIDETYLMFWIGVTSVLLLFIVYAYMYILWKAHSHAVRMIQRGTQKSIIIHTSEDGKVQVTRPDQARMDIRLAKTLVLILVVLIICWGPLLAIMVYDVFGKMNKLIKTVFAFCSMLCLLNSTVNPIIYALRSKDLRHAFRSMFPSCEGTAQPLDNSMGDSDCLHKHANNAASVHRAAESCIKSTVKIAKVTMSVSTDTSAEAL
UniProt Q6RI86, whole entry: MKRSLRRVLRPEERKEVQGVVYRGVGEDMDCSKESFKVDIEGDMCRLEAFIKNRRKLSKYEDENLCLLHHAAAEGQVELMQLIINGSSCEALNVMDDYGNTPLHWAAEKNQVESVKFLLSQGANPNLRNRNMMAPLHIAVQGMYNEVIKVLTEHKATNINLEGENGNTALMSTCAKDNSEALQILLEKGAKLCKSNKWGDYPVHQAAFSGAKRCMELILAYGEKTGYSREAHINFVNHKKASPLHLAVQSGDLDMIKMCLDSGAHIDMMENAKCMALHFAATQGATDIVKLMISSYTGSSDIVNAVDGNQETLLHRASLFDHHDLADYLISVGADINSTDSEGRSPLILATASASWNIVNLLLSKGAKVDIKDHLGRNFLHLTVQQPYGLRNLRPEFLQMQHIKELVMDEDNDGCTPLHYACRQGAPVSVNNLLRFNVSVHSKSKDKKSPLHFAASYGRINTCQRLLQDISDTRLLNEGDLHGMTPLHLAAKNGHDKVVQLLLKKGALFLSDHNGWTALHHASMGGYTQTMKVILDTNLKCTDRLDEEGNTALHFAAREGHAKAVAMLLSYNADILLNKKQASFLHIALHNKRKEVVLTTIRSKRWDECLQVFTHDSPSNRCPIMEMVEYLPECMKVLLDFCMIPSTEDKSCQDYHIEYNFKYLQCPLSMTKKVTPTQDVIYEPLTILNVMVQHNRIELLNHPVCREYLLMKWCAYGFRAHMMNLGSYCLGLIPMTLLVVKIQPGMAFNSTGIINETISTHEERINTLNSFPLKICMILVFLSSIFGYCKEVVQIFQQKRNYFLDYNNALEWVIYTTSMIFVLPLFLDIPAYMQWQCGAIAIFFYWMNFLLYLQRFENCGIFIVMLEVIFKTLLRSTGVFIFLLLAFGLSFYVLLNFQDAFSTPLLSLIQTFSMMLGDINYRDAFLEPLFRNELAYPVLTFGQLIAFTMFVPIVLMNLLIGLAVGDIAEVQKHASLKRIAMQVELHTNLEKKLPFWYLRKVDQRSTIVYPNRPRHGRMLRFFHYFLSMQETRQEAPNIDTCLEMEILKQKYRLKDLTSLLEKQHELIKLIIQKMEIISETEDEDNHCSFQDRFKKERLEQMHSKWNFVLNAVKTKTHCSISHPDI
UniProt P47936: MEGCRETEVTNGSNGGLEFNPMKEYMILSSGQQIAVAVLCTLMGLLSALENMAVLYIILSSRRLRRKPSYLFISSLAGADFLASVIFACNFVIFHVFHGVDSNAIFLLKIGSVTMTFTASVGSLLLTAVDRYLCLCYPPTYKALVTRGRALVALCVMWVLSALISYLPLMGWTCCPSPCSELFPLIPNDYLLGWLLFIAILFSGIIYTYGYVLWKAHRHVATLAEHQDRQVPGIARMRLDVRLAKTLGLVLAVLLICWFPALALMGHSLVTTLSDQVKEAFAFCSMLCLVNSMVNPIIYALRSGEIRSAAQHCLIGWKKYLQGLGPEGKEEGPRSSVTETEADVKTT

Cc1c(C(=O)NN2CCCCC2)nn(-c2ccc(Cl)cc2Cl)c1-c1ccc(I)cc1 [AM251]
Emax ± SEM pERK hCB1R [1]: -116 ± 10 | Emax ± SEM β-AR recruitment hCB1R [2]: -105 ± 1 | Emax ± SEM GTPγS hCB1R [3]: -25 ± 5 | Emax ± SEM cAMP hCB1R [4]: -124 ± 9

C=CCN=C=S [allyl isothiocyanate]
EC50 [5]: 1410 ± 40 nM

SR144528
pKi ± SEM mCB2R [6]: 10.7 ± 0.16

— article PMC5216056 (2017)
